# Assay results: PubChem BioAssay AID540281 (Sanford-Burnham Center for Chemical Genomics, 2011)
# By UniProt entry, the sequences of proteins in these tests, tags left out. Where a name states a change or a piece, a line headed by the entry shows the natural chain unless it says otherwise.
# UniProt Q9GZU7: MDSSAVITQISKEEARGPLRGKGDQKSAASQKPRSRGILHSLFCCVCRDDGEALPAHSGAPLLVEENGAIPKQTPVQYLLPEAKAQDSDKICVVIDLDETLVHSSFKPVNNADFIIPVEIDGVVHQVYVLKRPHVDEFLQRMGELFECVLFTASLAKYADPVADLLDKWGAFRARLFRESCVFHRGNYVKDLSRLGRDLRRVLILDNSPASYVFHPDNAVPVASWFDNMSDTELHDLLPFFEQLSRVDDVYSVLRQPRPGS
# The list shows a part of the results, in another mix than the full data. Calls of active or inactive are those of the source.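 Rule for the calls: active = inhibition of at least 30% at 20 µM; inactive = the rest.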
# Molecular target: Carboxy-terminal domain RNA polymerase II polypeptide A small phosphatase 1 (Homo sapiens) (UniProt Q9GZU7)
# Assay: SCP1 dephosphorylation blockade at one dose – biochemical, colorimetric, single concentration, confirmation (AID 540281);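 note: plate controls were DMSO with enzyme for no effect and buffer wells lacking enzyme for full effect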
# Details: recombinant SCP-1 catalytic domain, phosphate release, malachite green absorbance; at 20 µM; hits give high values
# Method in brief: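 Material – human SCP-1 phosphatase catalytic domain, residues 76-261 · Buffer or medium – Tris acetate buffer pH 5.5 with 10 mM MgCl2 and Tween-20 · Reagent – Phosphorylated 17-mer peptide as phosphatase substrate · Compound dosing – single 20 µM final compound concentration, 1.0% DMSO · Incubation – 45 min phosphatase reaction at RT · Technique – Phosphate-release colorimetry, 630 nm absorbance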
row,Compound,inhibition
1,Nc1cccc2ccc([As](=O)(O)O)cc12,active: 45.8%
